According to US20250309306A1, “Cationic Viologen Derivatives and Use Thereof in Redox Flow Batteries” (priority 2024, published 2025):

Test: Water solubility by quantitative NMR
Assay type: physicochemical
Conditions: thermodynamic from solid, Table 3, at 20° C.
Protocol: The compound to be tested was dissolved in 100 μl D2O until saturation was reached. Any undissolved compound was filtered off and the filtrate was combined with a standard solution containing a known amount of a calibration compound as an internal reference. The sample is investigated using 1H NMR. […] The solubility of the compound to be tested was then calculated from a relative concentration determination based on the known calibration compound concentration.

[Br-].[Br-].c1cc[n+]2c(c1)-c1cccc[n+]1CC2 [reference compound]
solubility: > 1500 mM
